Test [1] has as its target K-Ras^G12D and hSOS1 (Homo sapiens, UniProt Q07889). In words: K-Ras G12D and hSOS1 binding assay (HTRF). The conditions noted are these: read-out: Activity by IC50 (nM), SOS1 inhibitory activity; inhibition of binding of K-Ras G12D to hSOS1, HTRF. The procedure:
1. K-Ras^G12D and hSOS1 Binding Assay
This assay could be used to examine the potency of the compounds to inhibit the protein-protein interaction between SOS1 and KRAS G12D. The binding of anti-GSK-Europium (FRET donor)-conjugated GST-KRas^G12D to anti-6His-XL665-conjugated His-tagged hSOS1 ([…]) was detected by homogeneous time-resolved fluorescence (HTRF), and the inhibitory effects of the compounds on the binding of K-Ras^G12D to hSOS1 were determined.
• Buffer (5 mM HEPES pH 7.4, 150 mM NaCl, 10 mM EDTA, 1 mM DTT, 0.05% BAS pH 7.0, 0.0025% 1gepal, and 100 mM KF); • GST-tagged hK-RasG12D (produced in-house); • His-tagged hSOS1 (produced in-house);
• 10 nM (final concentration) GST-hK-RasG12D and 2 nM (final concentration) anti-GSK-Europium in assay buffer were mixed, and set aside at room temperature.
• 20 nM (final concentration) His-tagged hSOS1 and 10 nM (final concentration) anti-6His-XL665 in assay buffer were mixed, and set aside at room temperature.
The test compound was dissolved in DMSO at a concentration of 100 times the assay concentration. 50 nL of the solution of compound was pipetted by Hummingbird liquid handler or Echo acoustic system to a black microassay plate.
All the experimental steps were conducted at 20° C. […]
The IC50 values were calculated and analyzed using a four-parameter logistic regression model.
(In general: Time-resolved FRET reads energy transfer from a long-lived donor to a nearby acceptor.)

By UniProt entry, the sequences of proteins in these tests, tags left out. Where a name states a change or a piece, a line headed by the entry shows the natural chain unless it says otherwise.
UniProt Q07889, whole entry, stated change not applied: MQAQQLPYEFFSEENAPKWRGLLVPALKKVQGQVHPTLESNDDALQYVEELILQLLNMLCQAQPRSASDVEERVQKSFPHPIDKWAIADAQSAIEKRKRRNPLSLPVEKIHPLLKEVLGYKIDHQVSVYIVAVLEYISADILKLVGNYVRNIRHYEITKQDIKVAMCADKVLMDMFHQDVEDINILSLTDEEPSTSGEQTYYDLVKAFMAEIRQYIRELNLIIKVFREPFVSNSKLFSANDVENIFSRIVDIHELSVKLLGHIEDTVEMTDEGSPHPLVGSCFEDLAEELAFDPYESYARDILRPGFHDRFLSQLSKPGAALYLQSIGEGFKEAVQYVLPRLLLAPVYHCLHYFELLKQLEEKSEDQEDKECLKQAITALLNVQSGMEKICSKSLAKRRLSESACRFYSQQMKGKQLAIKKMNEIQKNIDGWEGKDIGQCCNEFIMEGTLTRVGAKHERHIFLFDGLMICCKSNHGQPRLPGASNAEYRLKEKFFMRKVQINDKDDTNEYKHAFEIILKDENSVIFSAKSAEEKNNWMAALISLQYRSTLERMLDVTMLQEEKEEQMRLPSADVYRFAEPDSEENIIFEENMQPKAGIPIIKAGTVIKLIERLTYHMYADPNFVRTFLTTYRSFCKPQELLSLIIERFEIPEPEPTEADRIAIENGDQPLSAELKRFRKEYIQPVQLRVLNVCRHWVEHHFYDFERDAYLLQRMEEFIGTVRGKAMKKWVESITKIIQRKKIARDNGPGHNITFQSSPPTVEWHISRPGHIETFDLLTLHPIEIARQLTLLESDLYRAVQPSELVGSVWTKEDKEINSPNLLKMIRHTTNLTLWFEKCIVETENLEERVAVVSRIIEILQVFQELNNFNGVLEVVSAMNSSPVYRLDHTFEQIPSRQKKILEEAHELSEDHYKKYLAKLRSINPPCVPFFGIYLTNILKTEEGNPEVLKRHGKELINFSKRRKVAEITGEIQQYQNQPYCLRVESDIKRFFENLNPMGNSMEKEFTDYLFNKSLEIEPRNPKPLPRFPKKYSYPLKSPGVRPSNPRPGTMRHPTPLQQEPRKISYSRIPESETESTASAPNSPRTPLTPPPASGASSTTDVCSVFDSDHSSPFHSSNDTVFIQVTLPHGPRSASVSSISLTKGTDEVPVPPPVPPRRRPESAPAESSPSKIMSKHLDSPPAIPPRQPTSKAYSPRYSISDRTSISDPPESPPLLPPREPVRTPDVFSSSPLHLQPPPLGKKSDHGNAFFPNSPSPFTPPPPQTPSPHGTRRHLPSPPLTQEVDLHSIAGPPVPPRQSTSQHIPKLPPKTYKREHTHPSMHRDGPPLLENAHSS

Test [2] has as its system NCI-H358 cells. In words: 3D cell proliferation inhibition assay (CellTiter-Glo 3D). In kind it is cell-based. Particulars: read-out: Activity by IC50 (nM), inhibitory activity against NCI-H358 cell proliferation; NCI-H358 (KRAS G12C-mutated NSCLC), 3D culture, CTG 3D read on Day 8. The text has this: The cell proliferation inhibition assay was used to determine the abilities of compounds to inhibit the proliferation and growth of SOS1-mediated tumor cells at the in vitro 3D cellular level. The CellTiter-Glo® 3D Cell Viability Assay was employed.
• NCI-H358: KRAS G12C-mutated non-small cell lung cancer (NSCLC); • CellTiter-Glo® 3D Cell Viability Assay, Promega, G9683; • RPMI 1640 medium, Gibco, A10491-01; • FBS, Gibco, 10099141C.
• Day 1: NCI-H358 cells were passaged into a T75 cell culture flask. • Day 3: the medium was removed; the cells were rinsed once with DPBS, and digested at room temperature or at 37° C. using 2 mL of TrypLE™ Express Enzyme until the cells were detached; the resultant was added with 5 mL of fresh medium, and centrifuged at 1000 rpm for 5 min; the supernatant was discarded, and 5 mL of fresh medium was added to resuspend the cells; the cells were counted and then seeded at 40 μL/well in a 3D cell culture plate (Echo Qualified 384-Well Polypropylene Microplate 2.0, Clear, Flat Bottom). […]
On the technique in general: In ATP-based viability assays light output follows the ATP content of the culture.

Consider `Cc1nc(N[C@H](C)c2cccc(C(F)(F)F)c2)c2c(n1)N1CCN=C1C(c1ccn(C)c(=O)c1)=C2`, for which the IC50 in test [1] is 10 to 50 nM; in test [2], below 50 nM.

Source of the values: US20250051330A1, “HETEROCYCLIC COMPOUND HAVING ANTI-TUMOR ACTIVITY AND USE THEREOF” (CSPC Zhongqi Pharmaceutical Technology (Shijiazhuang) Co., …, priority 2021, published 2025).
